Tested on: Mortierella elongata AG77
Experiment: Carbon source utilisation in Biolog 96-well plates, formazan formation after tetrazolium addition
Type: cell-based
Experimental: Two 300 mL volumes of growth medium comprising 1 g/L KH2PO4, 1 g/L MgSO4 7H2O, 0.1 g/L CaCl2, 0.02 g/L FeNaEDTA, 0.1 g/L NaCl, and either 1 g/L NH4NO3 or 20 g/L sucrose were prepared. Acidity was adjusted to 5.5 using NaOH and volumes of growth medium were autoclaved 30 min at 121° C. to sterilize. Aliquots of 200 μL of carbon-free medium or nitrogen-free medium were pipetted into each well of a set of 96-well plates previously prepared with lyophilized putative carbon or nitrogen sources (Biolog Inc., Hayward, Calif.). Inocula were prepared by perforating a culture of Mortierella elongata AG77 grown on 20 g/L potato dextrose agar with a 3 mm diameter cork borer and separating the surface mycelial mat from the solid growth medium using tweezers. Each well was inoculated with one inoculum. Cultures were incubated at 21° C. for 24 hours to allow metabolic changes to stabilize, and then 100 μL of 3 g/L tetrazolium chloride in water was added to each well. Formazan formation was observed visually at 2 h, 24 h, and 148 h.
Conclusions were based on rate and intensity of formazan formation using the 3-4,5-dimethylthiazol-2-yl)-2,5-diphenyltetrazolium bromide (MTT) assay. “Metabolized” indicates more formazan formation than a control containing no carbon source, and “Toxic” indicates less formazan formation than a control containing no carbon source. […]

## O=C(O)CCC(=O)C(=O)O [α-Keto-Glutaric Acid]
Compound as carbon source, Metabolized = more formazan formation than a control containing no carbon source, observed visually at 2 h, 24 h, 148 h
  Metabolized: yes
Summary of Table 3
  Carbon sources that Mortierella elongata AG77 can metabolize: can metabolize

— US20200325505A1, “FILAMENTOUS FUNGI CAPABLE OF PRODUCING VERY LONG CHAIN FATTY ACIDS” (UT-Battelle, LLC, priority 2019, published 2020)
